Type in all cases: cell-based
One data set has as its system B. subtilis Bs11. The data set is described as follows: inhibition zone assay, lethal concentration. How it is done:
(§1) Thin agar or agarose plates (8.5 cm diameter) were prepared with 6 ml of rich medium containing 100 ug/ml of streptomycin and 2×10^5 viable cells of a test organism resistant to streptomycin. Wells of 3.5 mm diameter were punched in the plates and 3 ul of serially diluted samples were placed in the wells. The diameters of the zones of inhibition around the wells were measured after overnight incubation at 30° or 37° C. For each peptide the squares of the zone diameters were plotted against the logarithm of the concentration, and from the slopes and intercepts the lethal concentrations were calculated as described by Hultmark (1983) EMBO J. 2, 571-76 or Hultmark et al (1982) Eur. J. Biochem. 127 207-217 each of which being incorporated herein by reference.
(§2) Lethal Concentrations calculated from inhibition zones on thin agarose
(§3) aeruginosa; Bs11: B. subtilis; +ME: plates prepared with medium E; Staph: […]

A further data set concerns P. aeruginosa OT97. The experiment in a line: inhibition zone assay, lethal concentration. To be noted: P. aeruginosa OT97, thin agarose plates. How it is done:
as §1, §2
(§4) plates seeded with the respective organisms. D21: E. coli; OT97: P.
as §3

For the next data set, the system named is E. coli D21. The experiment in a line: inhibition zone assay, lethal concentration. To be noted: E. coli D21, thin agarose plates. On the procedure:
as §1, §2, §4

The test system of another data set is S. pyogenes. The data set is described as follows: inhibition zone assay, lethal concentration. To be noted: thin agarose plates. On the procedure:
as §1, §2
(§5) S. aureus Cowan 1; Strep: S. pyogenes; SRC: Sheep red cells.; *all amino

In a further data set the test system is S. aureus Cowan 1. The data set is described as follows: inhibition zone assay, lethal concentration. To be noted: S. aureus Cowan 1, thin agarose plates. On the procedure: as §1, §2
aeruginosa; Bs11: B. subtilis; +ME: plates prepared with medium E; Staph:
as §5

The next data set has as its system Sheep red cells. The experiment in a line: inhibition zone assay, lethal concentration on sheep red cells. To be noted: thin agarose plates. On the procedure: as §1, §2, §5

The text below walks through data of patent publication US5585353A, “Antibiotic peptides containing D-amino acids” (The Rockefeller University, priority 1994, dated 1996).

The structures appear in SMILES notation.

Consider `CC[C@@H](C)[C@@H](NC(=O)CN)C(=O)NCC(=O)N[C@H](C)C(=O)N[C@@H](C(=O)N[C@H](CC(C)C)C(=O)N[C@H](CCCCN)C(=O)N[C@@H](C(=O)N[C@H](CC(C)C)C(=O)N[C@@H](C(=O)N[C@@H](C(=O)NCC(=O)N[C@H](CC(C)C)C(=O)N1CCC[C@@H]1C(=O)N[C@H](C)C(=O)N[C@H](CC(C)C)C(=O)N[C@@H](C(=O)N[C@H](CO)C(=O)N[C@H](Cc1c[nH]c2ccccc12)C(=O)N[C@@H](C(=O)N[C@H](CCCCN)C(=O)N[C@H](CCCNC(=N)N)C(=O)N[C@H](CCCCN)C(=O)N[C@H](CCCNC(=N)N)C(=O)N[C@H](CCC(N)=O)C(=O)N[C@H](CCC(N)=O)C(N)=O)[C@H](C)CC)[C@H](C)CC)[C@H](C)O)[C@H](C)O)C(C)C)C(C)C` [Compound 11], for which the “Lethal Concentrations Bs11 +ME” value with B. subtilis Bs11 (B. subtilis Bs11, plates prepared with medium E) stood at 0.3 µM. Also, the “Lethal Concentrations Bs11” value with B. subtilis Bs11 (B. subtilis Bs11, thin agarose plates) was 0.4 µM. The “Lethal Concentrations OT97” value with P. aeruginosa OT97 came to 2 µM. In addition, the “Lethal Concentrations D21” value in the data set with E. coli D21 was found to be 1 µM. For the same molecule, the “Lethal Concentrations Strep” value with S. pyogenes is 0.9 µM. Moreover, the “Lethal Concentrations Staph” value with S. aureus Cowan 1 worked out at 0.1 µM. Moreover, the “Lethal Concentrations SRC” value in the data set with Sheep red cells is 2 to 3 µM.
